Test system: breast cancer (hyperactivity of HER2 gene), tumor in the mediastinum
Test: Case report: breast cancer patient with mediastinal tumor, Herceptin plus DDW
Format: in vivo, human
Description: In one patient in our data base, a tumor of 7.5 cm maximal diameter was discovered in the mediastinum 10 years after mastectomy, in January 2002. The patient received Herceptin and started to drink DDW in February.
DdU units used in the treatment were determined as described in Example 1 and 2.

## trastuzumab [Herceptin]
One patient, tumor of 7.5 cm maximal diameter, 8 months after start of Herceptin with DDW consumption
  tumor detection: could not be detected
Same patient, 8 years later (2010), Herceptin with DDW
  symptom status: free of symptoms

— patent US20140127194A1, “COMBINED PHARMACEUTICAL COMPOSITIONS FOR THE TREATMENT OF TUMORS” (HYD Rákkutató és Gyógyszerfejlesztö Kft., priority 2011, published 2014)
